ALDH1A1 inh = inhibitors of human aldehyde dehydrogenase 1A1. P00352. Purified ALDH1A1, NADH fluorescence, propionaldehyde substrate. Potency, µM (doses to about 75.3 µM), for inactives: at the highest dose activity, negative = inhibition, usual class: inhibitors. actives 7.3% (n = 220,000). AID 1030; active = well fitted inhibition curve with a large enough effect, not every such curve was filed as active; inconclusive = small, poorly fitted or top-dose-only effect, or another doubt; inactive = no such curve, though single readings can be large or run the other way;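 note: potency is the fitted concentration of half-maximal effect; plate controls were no enzyme wells and a reference inhibitor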
miR-21 reporter = miR-21 reporter, rising signal; HeLa miR-21 FLuc reporter, luciferase, 48 h; Potency, µM (titrated, usually from 38.3 µM), without a hit: top-dose reporter change, positive = more light; AID 2288; 340,000 tested, under 10 active; active = well fitted rising curve with a large enough effect; inconclusive = small, poorly fitted or top-dose-only effect; inactive = no such curve, though single readings can be large or run the other way;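 further: % of control where 0% means no effect; miR-21 action dims this reporter so a rising signal means less miR-21 action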
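HeLa cells stably expressing CMV-driven firefly luciferase with a downstream miR-21 binding sequence, endogenously expressing miR-21, were treated with titrations (up to about 40uM final) for 48 hours at 37 degree Celsius. Luciferase luminescence was read after lysis.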
JMJD2E inh = blocks human JMJD2E demethylase activity | Potency, µM (highest dose often 57.1 µM), for inactives: top-dose activity change, negative = inhibition, usual class: inhibitors | AID 2147 | actives 1.6% (n = 230,000) | JMJD2E catalytic domain, FDH-coupled NADH fluorescence (FDH is formaldehyde dehydrogenase);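 note: potency is the fitted concentration of half-maximal effect; 0% = wells with enzyme and -100% = buffer wells without enzyme; nearly all actives have a fitted effect of over 50% in size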
Lamin A splicing = changes lamin A minigene splicing in HeLa cells; HeLa LMNA splicing GFP/RFP minigene ratio, 48 h; Potency, µM (top dose mostly 46.1 µM), inactives show top-dose ratio change, negative = inhibition, most hits filed as inhibitors; actives 0.01% (n = 200,000); active = well fitted inhibition curve with a large enough effect in the signal ratio, with a control signal flat, not every such curve was filed as active; inconclusive = small, poorly fitted or top-dose-only effect, or effect the other way, or a change in a side signal; the % refers to the signal ratio; note: potency is the fitted concentration of half-maximal effect; % is set by controls: 0 for no effect and ±100 for the full control effect
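S3 HeLa stable clones carrying a lamin A-EGFP splicing minigene plus DsRed2 were seeded at 600 cells/well in Opti-MEM with 2% FBS, pin-dosed and incubated 48 h at 37°C. Acumen cytometry (488 nm) gave the GFP/RFP total-intensity ratio.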
G9a inh = inhibitors of human histone lysine methyltransferase G9a. G9a H3K9 monomethylation, AlphaScreen, 2 h. Potency, µM (doses to about 102 µM), without a hit: at the highest dose activity, negative = inhibition, actives largely listed as inhibitors. AID 504332. Q96KQ7. actives 8.8% (n = 350,000); note: potency is the fitted concentration of half-maximal effect; % is set by controls: 0 for no effect and ±100 for the full control effect; nearly all actives have a fitted effect of over 75% in size
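Methyltransferase reactions run at room temperature for 2 h (20 nM enzyme, 500 nM biotin-H3K9 peptide, 20 uM SAM) after a 15 min compound preincubation; product detected by AlphaScreen beads and anti-H3K9me1 antibody.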
Sfp inh = Sfp phosphopantetheinyl transferase inhibition; 310,000 tested, 3.5% active; Potency, µM, inactives show max response, negative = inhibition, hits mostly inhibitors; AID 1490; Q9F4F7; Biochemical Sfp PPTase activity, qHTS; active = well fitted inhibition curve with a large enough effect; inconclusive = small, poorly fitted or top-dose-only effect, or another doubt; inactive = no such curve, though single readings can be large or run the other way;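 also: the enzyme is Sfp with the accession as filed and its product quenches rhodamine fluorescence; potency is read from the fitted curve at half-maximal effect; 0% = enzyme reaction without inhibitor and -100% = no enzyme wells; top concentration of the series not given in the record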
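Fluorescence-quenching assay: 15 nM Sfp-PPTase preincubated 15 min at room temperature with compound, then 5 uM rhodamine-CoA and 12.5 uM BHQ-2-labelled YbbR peptide added. Fluorescence (ex 525/em 598 nm) read at start and after 30 min; difference gives rate.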
* hit, by the source's call; i = inactive; ? = inconclusive; . = no result given; [ ] = another dose, or the depositor's remark. Rows were chosen to be rich in hits. Some 13% of all compounds tested hit in one or more screens of this group. Unless noted, calls come from the whole dose curve; as a rule, active = well fitted curve in the direction sought with a large enough effect; inconclusive = small, poorly fitted or top-dose-only effect, or another doubt; inactive = no such curve, though single readings can be large; an effect the other way counts as inactive or inconclusive.

The line under a structure holds: ALDH1A1 inh | miR-21 reporter | JMJD2E inh | Lamin A splicing | G9a inh | Sfp inh
COc1ccc(CCNc2nc(-c3sc(C)nc3C)cs2)cc1OC
    ? | 20.4% | ? | -11.5% | 10µM* | 44.7µM*
COc1ccc(CCNc2nc(-c3ccc(O)cc3)cs2)cc1OC
    . | -0.4% | . | . | 22.4µM* | ?
CC1Cc2ccccc2N1Cc1cccc([N+](=O)[O-])c1 (stereo not drawn)
    . | -3.9% | . | . | 14.1µM* | -9.2%
O=C1CSC(c2ccc([N+](=O)[O-])cc2)N1Cc1ccccc1 (stereo not drawn)
    . | -4.9% | . | . | -6.7% | 13.0%
CC1Cc2ccccc2N1Cc1ccc([N+](=O)[O-])cc1 (stereo not drawn)
    . | -0.7% | . | . | 39.8µM* | -16.2%
COc1ccc(CC(=O)NCCc2csc(-c3cccc(C)c3)n2)cc1
    . | -8.0% | . | -5.1%[46 µM] | 8.2%[59 µM] | .
Cc1ccccc1N1C(=O)c2sc3nc4c(c(=O)n3c2C1=O)CCC4
    28.2µM* | -14.0% | -6.4% | -1.7% | 8.91µM* | 22.4µM*
O=C1c2sc3nc4ccccc4n3c2C(=O)N1c1ccccc1Cl
    15.8µM* | -34.1% | ? | -0.1% | 1.41µM* | 39.8µM*
O=C(N/N=C/c1ccc(-c2ccccc2Cl)o1)c1ccccc1
    ? | -31.4% | ? | . | 3.6% | 11.9%
O=C(O)c1ccc(N/N=C/c2ccc(-c3ccccc3Cl)o2)cc1
    . | -65.5% | ? | . | 56.2µM* | 6.6%
Cc1nnc(C)n1/N=C/c1ccc(-c2ccccc2Cl)o1
    . | -5.0% | . | . | 50.1µM* | -19.3%
O=S(=O)(N/N=C\c1ccc(-c2ccccc2Cl)o1)c1ccccc1
    -1.8% | -3.8% | -2.8% | ? | 7.94µM* | 44.7µM*
CC(=O)Nc1ccc(NC(=O)COC(=O)c2ccccc2SCC(=O)N2CCCC2)cc1
    . | . | . | . | 17.8µM* | .
O=C(COC(=O)c1ccccc1SCC(=O)NC1CCS(=O)(=O)C1)NC1CCS(=O)(=O)C1 (stereo not drawn)
    8.2% | -0.6% | -4.4% | 29.2%[46 µM] | 17.5% | -5.5%
O=C(OCC(=O)N1CCCCC1)c1ccccc1SCC(=O)N1CCCCC1
    -8.1% | -16.2% | 8.3% | . | -32.8% | 12.3%
Cc1ccccc1NC(=O)COC(=O)c1ccccc1SCC(=O)N1CCCC1
    . | -10.9% | . | . | ? | 2.6%
CCNC(=O)NC(=O)COC(=O)c1ccccc1SCC(=O)NC(=O)NCC
    i | -27.9% | -5.5% | -2.5% | 44.7µM* | ?
COc1ccc(NC(=O)COC(=O)c2ccccc2SCC(=O)N2CCCC2)cc1
    . | . | . | . | 39.8µM* | .
CCOc1ccccc1NC(=O)c1cc2cc(C)ccc2n1C
    . | 14.3% | . | ? | 63.1%[59 µM] | .
OC1(c2cccnc2)CCN(Cc2nnnn2Cc2ccccc2)CC1
    15.8µM* | -1.1% | 1.7% | ? | 0.1%[59 µM] | 15.0%

(next part)
The line under a structure holds: ALDH1A1 inh | miR-21 reporter | JMJD2E inh | Lamin A splicing | G9a inh | Sfp inh
COc1ccc(Cn2nnnc2CN2CCc3ccccc3C2)cc1
    11.2µM* | -14.4% | 0.9% | 9.8% | -89.6% | 19.6%
COc1ccc(Cn2nnnc2CN2CCC(O)(c3ccccc3F)CC2)cc1
    8.91µM* | -5.4% | 4.2% | 10.0%[46 µM] | . | -1.0%
COC(=O)CNC(=O)N1CCN(S(=O)(=O)c2ccc3c(ccn3C)c2)CC1
    . | 1.2% | . | ? | 40.3%[59 µM] | .
COC(=O)c1cc(-c2ccccc2)sc1N
    ? | -42.6% | -7.4% | 3.0% | 4.47µM* | 39.8µM*
COC(=O)c1sc(-c2ccccc2)cc1NC(=O)C1CC1
    -4.3% | -4.1% | ? | 28.6%[9.22 µM] | 129.0% | 44.7µM*
Cc1ccc(CNC(=O)c2ccc3c(c2)N(Cc2ccccc2F)C(=O)c2ccccc2S3(=O)=O)cc1
    . | 1.5% | . | . | 0.1%[59 µM] | .
Cc1ccc(N2C(=O)C(Cl)=C(Nc3c(C)n(C)n(-c4ccccc4)c3=O)C2=O)cc1
    4.0% | -5.0% | ? | -7.6% | 5.01µM* | ?
Cc1c(NC(=O)Nc2c(Cl)cccc2Cl)c(=O)n(-c2ccccc2)n1C
    11.4%[13.5 µM] | 1.6% | 2.7% | . | -9.7% | 9.7%
CC[n+]1c(-c2ccc(C)cc2)csc1Nc1c(C)n(C)n(-c2ccccc2)c1=O
    14.3% | 16.5% | 1.7% | ? | 8.91µM* | 5.0%
Cc1cccc(N2C(=O)C(Cl)=C(Nc3c(C)n(C)n(-c4ccccc4)c3=O)C2=O)c1C
    -14.7% | -10.5% | -20.3% | 6.4% | 8.91µM* | 56.2µM*
Cc1cnc(=O)[nH]c1SCc1cccc([N+](=O)[O-])c1
    . | 2.2% | . | . | 20.1% | 2.6%
CCOC(=O)c1sc(-c2ccc(Cl)cc2Cl)nc1O
    4.4% | -18.6% | ? | . | 0.7% | 22.4%
N#CC1=C2SCN(C3CCCCC3)CN2C(=O)CC1c1ccc(Br)cc1 (stereo not drawn)
    . | -0.5% | . | . | 2.82µM* | .
CCOc1cc(C2CC(=O)Nc3cc(C)c(C)cc32)ccc1O (stereo not drawn)
    5.0% | -10.4% | 5.0% | -2.9% | 2.6% | -4.9%
S=C1SCN(C2CCCCCCCCCCC2)CN1C1CCCCCCCCCCC1
    0.3%[13.5 µM] | . | . | . | . | .
CCOc1cc(C2CC(=O)N3CN(C4CCCCC4)CSC3=C2C#N)ccc1O (stereo not drawn)
    6.31µM* | -0.6% | ? | -5.3% | 2.24µM* | 3.55µM*
CCOC(=O)CNC(=O)CSc1nc(Cc2ccccc2)nc2ccccc12
    . | -5.5% | . | . | . | -4.4%

Random excerpt: two records from the list.
The line under a structure holds: ALDH1A1 inh | miR-21 reporter | JMJD2E inh | Lamin A splicing | G9a inh | Sfp inh
COc1ccc(NC(=O)COC(=O)c2ccccc2SCC(=O)N2CCCC2)cc1
    . | . | . | . | 39.8µM* | .
COc1ccc(CCNc2nc(-c3ccc(O)cc3)cs2)cc1OC
    . | -0.4% | . | . | 22.4µM* | ?

Three successive compounds already listed, quoted:
The line under a structure holds: ALDH1A1 inh | miR-21 reporter | JMJD2E inh | Lamin A splicing | G9a inh | Sfp inh
COc1ccc(CC(=O)NCCc2csc(-c3cccc(C)c3)n2)cc1
    . | -8.0% | . | -5.1%[46 µM] | 8.2%[59 µM] | .
Cc1ccccc1N1C(=O)c2sc3nc4c(c(=O)n3c2C1=O)CCC4
    28.2µM* | -14.0% | -6.4% | -1.7% | 8.91µM* | 22.4µM*
O=C1c2sc3nc4ccccc4n3c2C(=O)N1c1ccccc1Cl
    15.8µM* | -34.1% | ? | -0.1% | 1.41µM* | 39.8µM*
